Curated experimental data: properties

The melting point is given in degrees Celsius.
The boiling point refers to atmospheric pressure (760 mmHg), by the definition of the set.
The octanol-water partition coefficient is given as log10; larger values mean a more lipophilic compound.
Water solubility is log10 of mol/L, nominally at 25 °C; higher is more soluble.
Vapor pressures (log10 mmHg) refer to near room temperature, 15 to 30 °C; higher is more volatile.
The unbound fraction in human plasma runs from 0 (all bound) to 1 (all free).
Intrinsic clearance (human, µL/min per 10^6 hepatocytes): higher is faster turnover, and 0 stands for none detected.

- CCCCCC1COCCC1OC(C)=O (stereo not drawn) [Tetrahydro-3-pentyl-2H-pyran-4-yl acetate]: log S -2.999 (log10 mol/L); log vapor pressure -2.435 (log10 mmHg)
- CCCSc1nc(Cl)c([N+](=O)[O-])c(Cl)n1 [4,6-Dichloro-5-nitro-2-(propylsulfanyl)pyrimidine]: melting point -71.1 °C; log Kow 2.6; log vapor pressure -4.426 (log10 mmHg)
- COC(=O)CN(c1cc(NC(C)=O)c(N=Nc2c(Cl)cc([N+](=O)[O-])cc2C#N)cc1OC)C(C)C(=O)OC (stereo not drawn): melting point 166.4 °C; log Kow 2.9; log vapor pressure -14.64 (log10 mmHg)
- C/C=C/C1CCC(C[P+](c2ccccc2)(c2ccccc2)c2ccccc2)CC1.[I-] (stereo partly drawn): melting point 160 °C; log Kow 1.55; log S -3.067 (log10 mol/L)
- CCC(CC)C(=O)OCCOCCOCCOC(=O)C(CC)CC [Triethylene glycol di-(2-ethylbutyrate)]: melting point -10 °C; log S -3.239 (log10 mol/L)
- c1ccc(CCOC2CCCCC2)cc1 [Benzene, [2-(cyclohexyloxy)ethyl]-]: log Kow 4.9; log vapor pressure -2.393 (log10 mmHg)
- C=CCOC(=O)C(C)(C)O [allyl 2-hydroxyisobutyrate]: melting point -36.6 °C; boiling point 169.9 °C; log vapor pressure -0.052 (log10 mmHg)
- O=C1C=CC(=O)N1C1CCCCC1 [1H-Pyrrole-2,5-dione, 1-cyclohexyl-]: log Kow 2.57; log S -2.838 (log10 mol/L)
- COC(=O)C1=C(C)NC(C)=C(C(=O)OC(C)C)C1c1cccc2nonc12 (stereo not drawn) [Isradipine]: log S -3.212 (log10 mol/L); fraction unbound 0.04333; hepatic Clint 47.6 µL/min/10^6 cells
- COC(=O)c1ccc(C(=O)O)cc1[N+](=O)[O-] [4-(Methoxycarbonyl)-3-nitrobenzoic acid]: log Kow 1.26; log S -2.657 (log10 mol/L)
- C=CC(C)(C)C [3,3-Dimethyl-1-butene]: log Kow 3.04; log S -3.413 (log10 mol/L)
- CC(=O)c1ccc(C)cc1 [p-Methylacetophenone]: log S -2.557 (log10 mol/L); log vapor pressure -0.409 (log10 mmHg)
- Nc1ccc2c(O)c(/N=N/c3ccc4c(O)c(/N=N/c5ccccc5)c(S(=O)(=O)[O-])cc4c3)c(S(=O)(=O)[O-])cc2c1.[Na+].[Na+] [C.I. Direct Red 16]: log Kow -1.5; log S -2.21 (log10 mol/L)
- N#Cc1c(F)cccc1F [2,6-Difluorobenzonitrile]: log Kow 1.9; log S -1.871 (log10 mol/L); log vapor pressure -0.87 (log10 mmHg)
- COc1ccc(C(Cl)(c2ccccc2)c2ccc(OC)cc2)cc1 [1,1'-(Chlorophenylmethylene)bis(4-methoxybenzene)]: log S -5.053 (log10 mol/L); log vapor pressure -6.799 (log10 mmHg)
- O=C(Nc1cccc2c(=O)c3c(ccc4c5cc(NC(=O)c6ccccc6)c6c(=O)c7ccccc7c(=O)c6c5[nH]c43)c(=O)c12)c1ccccc1 [C.I. Vat brown 3]: log Kow 4.1; log S -5.647 (log10 mol/L)
- CC(=O)N1CC(=O)N2CCc3ccccc3C2C1 (stereo not drawn): melting point 142 °C; log Kow 0.7; log vapor pressure -8.078 (log10 mmHg)
- CCCCCCC1C(=O)CCC1C(=O)OC (stereo not drawn) [Methyl 2-hexyl-3-oxocyclopentanecarboxylate]: log Kow 3.2; log S -3.085 (log10 mol/L); log vapor pressure -3.504 (log10 mmHg)
- CO[Si](C)(CNc1ccccc1)OC [N-{[Dimethoxy(methyl)silyl]methyl}aniline]: melting point -100.2 °C; log vapor pressure -2.512 (log10 mmHg)
- CC(C)(C)c1n[nH]c(=O)n(N)c1=O [Diketometribuzin]: log S -2.05 (log10 mol/L); log vapor pressure -7.714 (log10 mmHg)
- OCCN(CCO)c1ccccc1 [N-Phenyl diethanolamine]: log Kow 0.96; log vapor pressure -5.254 (log10 mmHg)
- CC(C)=CCCc1ccc2c(c1)C(=O)c1ccccc1C2=O: melting point 90.45 °C; log S -7.986 (log10 mol/L)
- C[C@@H]1C[C@@H](O)CC(C)(C)C1=O [Cyclohexanone, 4-hydroxy-2,2,6-trimethyl-, (4R,6R)-]: melting point 49.3 °C; log Kow 1.1
- CCOC(=O)CCC(=O)CC1(O)C2(Cl)C3(Cl)C4(Cl)C(Cl)(Cl)C5(Cl)C3(Cl)C1(Cl)C5(Cl)C42Cl (stereo not drawn) [Kelevan]: log S -5.06 (log10 mol/L); log vapor pressure -4.979 (log10 mmHg)
- CC(C)=CCCC(C)=CCCC=O [5,9-Dimethyl-4,8-decadienal]: log Kow 4.4; log S -3.538 (log10 mol/L); log vapor pressure -1.779 (log10 mmHg)
- Nc1nc(/C(=C/CC(=O)O)C(=O)N[C@@H]2C(=O)N3C(C(=O)O)=CCS[C@H]23)cs1 [Ceftibuten]: log S -3.765 (log10 mol/L); fraction unbound 0.35
- COC(=O)c1ccc(C(=O)OC)c(N=NC(C(C)=O)C(=O)Nc2ccc3[nH]c(=O)[nH]c3c2)c1 (stereo not drawn): melting point 305 °C; log S -6.314 (log10 mol/L)
- CN(C)C1=[O+]CCC1(c1ccccc1)c1ccccc1.[Br-]: log Kow -2.3; log vapor pressure -4.624 (log10 mmHg)
- CC(C)(C)c1ccc(Nc2ccc(Nc3ccc(C(C)(C)C)cc3S(=O)(=O)[O-])c3c2C(=O)c2c(O)ccc(O)c2C3=O)c(S(=O)(=O)[O-])c1.[Na+].[Na+]: log Kow -1; log S -2.886 (log10 mol/L)
- c1cc(C2(c3ccc(OCC4CO4)cc3)CCCCC2)ccc1OCC1CO1 (stereo not drawn): log S -4.978 (log10 mol/L); log vapor pressure -9.594 (log10 mmHg)
- S=C(SCc1ccccc1)SCc1ccccc1 [Carbonotrithioic acid, bis(phenylmethyl) ester]: melting point 29.4 °C; log Kow 6.025; log S -5.932 (log10 mol/L); log vapor pressure -4.011 (log10 mmHg)
- CC[C@]12CC[C@@H]3c4ccc(OC)cc4CC[C@H]3[C@@H]1CC[C@@H]2O [18-Methylestradiol-3-methyl ether]: log Kow 5.24; log S -4.876 (log10 mol/L)
- NCCCOCCCCOCCCN [1-Propanamine, 3,3'-[1,4-butanediylbis(oxy)]bis-]: melting point 3.75 °C; log vapor pressure -3.191 (log10 mmHg)

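The numbers are reported measurements, compiled and curated for the OPERA QSAR suite. A listed value is a point estimate from one report or more. How each value was measured is not recorded, so precision varies. The measured form (salt, isomer or mixture) is not always the one drawn. Some upstream entries may be estimates or bounds without being marked so.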

Source: data files of OPERA 2.9 (Mansouri et al.), github.com/kmansouri/OPERA.